This is an account of results in US9181182B2, “S1P receptors modulators” (Akaal Pharma PTY LTD, priority 2008, dated 2015).

Protein sequences, listed by entry. Tags and fused reporters are not part of them.
UniProt P21453, whole entry: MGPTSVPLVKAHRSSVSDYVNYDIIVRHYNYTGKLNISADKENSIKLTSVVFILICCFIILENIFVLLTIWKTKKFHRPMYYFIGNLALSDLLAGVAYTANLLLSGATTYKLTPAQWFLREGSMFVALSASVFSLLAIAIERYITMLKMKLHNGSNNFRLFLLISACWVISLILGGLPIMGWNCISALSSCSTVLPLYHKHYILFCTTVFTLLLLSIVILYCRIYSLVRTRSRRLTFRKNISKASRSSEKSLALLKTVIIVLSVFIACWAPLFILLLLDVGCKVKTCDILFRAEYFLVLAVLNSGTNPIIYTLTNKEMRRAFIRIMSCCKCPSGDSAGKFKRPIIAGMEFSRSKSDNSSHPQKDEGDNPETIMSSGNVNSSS

What is called EC50 is the concentration that produces a half-maximal response. The low end stands for a more potent agent, the high end for a less potent agent.

The experiment addresses S1P1 human receptor (Homo sapiens (Human), UniProt P21453). Nature of the experiment: S1P1 [35S]-GTPgamaS binding assay (agonist activity). In kind it is biochemical. As to the method: Selected Compounds of the Examples were evaluated at Millipore Corporation, USA, using S1P1 receptor; [^35S]-GTPgamaS binding assay. A [^35S]-GTPgamaS binding assay at Millipore was conducted by GPCR Profiler™ Custom Service Laboratory, Temecula, Calif., Millipore, Inc. to monitor dose-dependent agonist selectivity for selected Examples against the S1P1 receptors. The assay was completed with sample compounds subjected to an eight-point, four-fold dose response curve with starting concentration of 10 μM. Selectivity was determined upon initial addition of compounds followed by a 30 minute incubation at 30° C. Following compound incubation, bounded [^35S]-GTPgamaS was determined by filtration and scintillation counting.
Independently, selected compounds were evaluated for S1P1 and S1P3 agonistic activity. The S1P1 assay system was GTPgama-S35 binding in membranes from CHO K1 cells, expressing S1P1 human receptor. The S1P3 assay system was calcium mobilization in CHO K1 cells expressing S1P3 human receptor. There was no significant background response to S1P in the CHO K1 cells with either assay. Compounds were tested initially at a concentration of 10 μM.

The substance “2-Amino-2-((5-(5-3-(1-admantyl)-3-methoxyphenyl)-1,2,4-oxadiazol-3-yl)indolin-1-yl)methyl)propane-1,3-diol [Example 33]” showed a concentration giving a half-maximal response (EC50) greater than 24 µM.
